Assay results as given in patent US20120020915A1, “Compounds and Methods for Treating Cancer and Diseases of the Central Nervous System” (QUEENS UNIVERSITY AT KINGSTON, priority 2007, published 2012).

Columns and labels:
HO-1 (rat spleen) = target: T1, HO-1 (rat spleen) (Rattus norvegicus, UniProt P06762); test: HO enzymatic activity, rat spleen microsomal fraction (CO formation from methemalbumin); format: biochemical; settings: mean ± SD of replicate experiments
T1 construct: Spleen microsomes were used as a source of HO-1; from tissue; host or cells: spleen microsomal fraction of adult male Sprague-Dawley rats
T1 sequence (P06762 1-289): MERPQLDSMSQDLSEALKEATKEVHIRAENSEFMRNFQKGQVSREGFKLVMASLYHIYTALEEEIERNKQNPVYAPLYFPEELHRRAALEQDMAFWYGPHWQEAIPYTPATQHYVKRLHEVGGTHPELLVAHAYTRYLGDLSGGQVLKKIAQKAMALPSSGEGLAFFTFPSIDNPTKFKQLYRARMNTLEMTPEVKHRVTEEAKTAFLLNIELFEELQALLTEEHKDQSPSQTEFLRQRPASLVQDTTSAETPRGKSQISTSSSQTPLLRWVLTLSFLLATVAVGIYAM
Method: (§1) Incubations for HO activity analysis were done under conditions for which the rate of CO formation (pmol CO×min^−1×mg protein^−1) was linear with respect to time and microsomal protein concentration. Briefly, reaction mixtures (150 μL) consisting of 100 mM phosphate buffer (pH 7.4), 50 μM methemalbumin, and 1 mg/mL protein were pre-incubated with the inhibitors at final concentrations ranging from 0.1-100 μM for 10 minutes at 37° C. Reactions were initiated by adding NADPH at a final concentration of 1 mM and incubations were performed for an additional 15 minutes at 37° C.
(§2) Incubations for HO activity analysis were done under conditions for which the rate of CO formation (pmol CO/mg protein/minute) was linear with respect to time and microsomal protein concentration. […] Reactions were stopped by instantly freezing the reaction mixture on pulverized dry ice and CO formation was measured by gas chromatography using a TA 3000R Process Gas Analyzer (Trace Analytical/Ametek, Newark, Del., USA).
(§3) The values on the abscissa represent the decimal logarithm of the inhibitor's concentration (in μM), whereas the values of the activity on the ordinate are expressed as a percentage of the control experiments without inhibitor. […]

HO-2 (rat brain) = target: T2, HO-2 (rat brain) (Rattus norvegicus, UniProt P23711); test: HO enzymatic activity, rat brain microsomal fraction (CO formation from methemalbumin); format: biochemical; settings: IC50 HO-2 (rat brain)/μM), mean ± SD of replicate experiments
T2 construct: brain microsomes were used as a source of HO-2; from tissue; host or cells: brain microsomal fraction of adult male Sprague-Dawley rats
T2 sequence (P23711 1-315): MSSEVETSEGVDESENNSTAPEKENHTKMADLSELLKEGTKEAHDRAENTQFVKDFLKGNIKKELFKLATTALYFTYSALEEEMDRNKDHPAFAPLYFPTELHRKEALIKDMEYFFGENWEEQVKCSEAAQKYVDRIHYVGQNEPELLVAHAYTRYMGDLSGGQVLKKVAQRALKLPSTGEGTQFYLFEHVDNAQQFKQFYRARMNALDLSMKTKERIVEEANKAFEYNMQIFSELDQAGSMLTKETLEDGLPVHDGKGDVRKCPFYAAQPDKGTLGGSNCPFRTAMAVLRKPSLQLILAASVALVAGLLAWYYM
Method: as §1, §2, §3

SMILES | IC50 (HO-1 (rat spleen)) [µM] | IC50 (HO-2 (rat brain)) [µM]
Cl.OC(CCc1ccc(I)cc1)Cn1ccnc1 (racemic) [QC-74, (±)-1-(1H-Imidazol-1-yl)-4-(4-iodophenyl)-2-butanol hydrochloride] | 0.06 ± 0.03 | –
Nc1cccc(SC[C@H]2CO[C@](CCc3ccc(Cl)cc3)(Cn3ccnc3)O2)c1 [QC-20, (2S,4R)-2-[2-(4-chlorophenyl)ethyl]-2-[(1H-imidazol-1-yl)methyl]-4-[{(3-aminophenyl)thio}methyl]-1,3-dioxolane hydrochloride] | – | 24 ± 4

Where a name gives a salt, the structure may show the parent alone.
